According to US10369221B2, “Conjugated porphyrin carbon quantum dots for targeted photodynamic therapy” (Hong Kong Baptist University, priority 2016, dated 2019):

Experiments:
[1] = Zeta potential measurement; format: physicochemical; conditions: pH 7.0 (printed for PCQDs)
Experimental: Zeta potential is widely used as the indicator of the magnitude of the charge and the stability of nanomaterials. The zeta potential of PCQDs was recorded as −5.90 mV at pH 7.0 (FIG. 1B), due to the existence of —OH/—COOH groups on the surface of porphyrin carbon quantum dots. When Zn(II)TAP is used as passivation agent, the zeta potential changed to −7.19 mV, owing to the absence of protonation inside of ZnPCQDs. The two materials both bear negative charges, which may be responsible for the high water dispersity and solubility of porphyrin carbon quantum dots. After functionalization of PCQDs with PEG diamine, the zeta potential of NH2-PCQDs becomes 5.33 mV, indicating the loss of the carboxylic acid groups upon surface functionalization.

HLF cells = assay: In vitro PDT effect, CCK-8 assay, normal HLF cells; format: cell-based
Experimental: To compare the dark toxicity and phototoxicity of the porphyrin carbon quantum dots, the stock solutions of nanomedicines were diluted with fresh medium to various concentrations (5, 10, 20, 50 and 100 μg/mL). The cells were then incubated with these solutions at 37° C. in 5% CO2 for 4 h, and the cultures were then irradiated using a 500 W Xe lamp as the light source with an intensity of 6.5 mW/cm^2 for 0 or 30 min before removing the porphyrin carbon quantum dots solution and adding fresh medium. Subsequently, the plates were incubated at 37° C. in 5% CO2 for 24 h. The cell medium solutions were exchanged for 100 μL of fresh medium, followed by the addition of L of CCK8 solution to each well. The culture plates were then incubated at 37° C. in 5% CO2 for 4 h. The absorbance of an untreated cell population under the same experimental conditions was used as the reference point to establish 100% cell viability. The absorbance of the 96-well plates was detected by a 450 nm laser by a Plate reader (1420 Multi-label Counter Perkin Elmer).

H23 cells = assay: Targeting ability by confocal laser scanning microscope, H23 cells (low expression of EGFR); format: cell-based; conditions: 0.5 mg/mL, 12 hours
Experimental: (§1) Cellular uptake by cancer cells was examined using a confocal laser scanning microscope (CLSM). Cancer cells were seeded in 6-well culture plates (a sterile cover slip was put in each well) at a density of 5×10^4 cells per well and allowed to adhere for 24 h. After that, the cells were treated with porphyrin carbon quantum dots (0.5 mg/mL) for 12 h at 37° C. After that, the supernatant was carefully removed and the cells were washed three times with PBS. Subsequently, the slides were mounted and observed by confocal microscope (Zeiss Laser Scanning Confocal Microscope; LSM7 DUO) using ZEN 2009 software (Carl Zeiss).

HCC827 cells [2] = assay: In vitro PDT effect, CCK-8 assay, HCC827 cells; format: cell-based; conditions: 0-100 μg/mL
HCC827 cells [3] = assay: Subcellular localization with DAPI and LysoTracker Green DND-26 staining; format: cell-based; conditions: 12 hours incubation
Experimental: Cancer cells were cultured in Minimum Essential Medium (MEM) containing 10% fetal bovine serum and 1% antibiotics penicillin and streptomycin (P/S) and incubated at 37° C. in a humidified 5% CO2 atmosphere. Cancer cells (6×10^3 cells per well) were seeded in 96-well plates and incubated overnight at 37° C. in a humidified 5% CO2 atmosphere. After being rinsed with PBS (pH 7.4), the cells were incubated with porphyrin carbon quantum dots at a concentration of 0.5 mg/mL for 12 h at 37° C. in the dark under the same conditions. The cells were rinsed with PBS again, and stained by LysoTracker® Green DND-26 for 30 min. After the cells were fixed with 4% paraformaldehyde, DAPI (Invitrogen) was used to mount each coverslip on a glass slide for confocal laser scanning microscope (CLSM).

HCC827 cells [4] = assay: Targeting ability by confocal laser scanning microscope, HCC827 cells (over-expression of EGFR); format: cell-based; conditions: 0.5 mg/mL, 12 hours
Experimental: as §1

With “C225-PCQDs: Cetuximab covalently bonded to NH2-PCQDs using a modified EDC-NHS reaction” the zeta potential [1] was 2.84 mV, the “cytotoxicity to normal cells with laser irradiation” value (HLF cells; 24 hour exposure and laser irradiation) was “no significant cytotoxicity” and the “effect on normal cells in dark or upon exposure to light” value (HLF cells; dark or light) was “no effects on normal cells”. For the same substance, the “red fluorescent signals in cells” value (H23 cells) was “very weak red fluorescent signals”, the “cytotoxicity after laser irradiation” value (HCC827 cells [2]; 24 hours exposure followed by irradiation) was “concentration-dependent cytotoxicity” and the “cells surviving without irradiation” value (HCC827 cells [2]; without irradiation) was “over 85%”. For the same substance, the subcellular localization (HCC827 cells [3]) was “localized primarily in the lysosomes of cells” and the “red fluorescent signals in cells” value (HCC827 cells [4]) was “strong red fluorescent signals”.
